{
  "source": "patent US5767072A",
  "about": "(priority 1993, dated 1998)",
  "origin": "cited, not measured here",
  "conditions": "in vivo; cited from earlier work",
  "data": [
    {"substance": "HSA: human serum albumin, proposed carrier protein", "values": [
      {"measurement": "half-life in humans", "result": 170, "unit": "h"}
    ]}
  ]
}
